molecular target: FLAG-tagged PDE2A1 (amino acids 2-941) (Homo sapiens (Human), UniProt O00408); assay: IMAP TR-FRET PDE2A phosphodiesterase enzymatic assay; conditions: not given

Protein sequences, listed by entry. Tags and fused reporters are not part of them. Residues count along the entry.
UniProt O00408, 2-941: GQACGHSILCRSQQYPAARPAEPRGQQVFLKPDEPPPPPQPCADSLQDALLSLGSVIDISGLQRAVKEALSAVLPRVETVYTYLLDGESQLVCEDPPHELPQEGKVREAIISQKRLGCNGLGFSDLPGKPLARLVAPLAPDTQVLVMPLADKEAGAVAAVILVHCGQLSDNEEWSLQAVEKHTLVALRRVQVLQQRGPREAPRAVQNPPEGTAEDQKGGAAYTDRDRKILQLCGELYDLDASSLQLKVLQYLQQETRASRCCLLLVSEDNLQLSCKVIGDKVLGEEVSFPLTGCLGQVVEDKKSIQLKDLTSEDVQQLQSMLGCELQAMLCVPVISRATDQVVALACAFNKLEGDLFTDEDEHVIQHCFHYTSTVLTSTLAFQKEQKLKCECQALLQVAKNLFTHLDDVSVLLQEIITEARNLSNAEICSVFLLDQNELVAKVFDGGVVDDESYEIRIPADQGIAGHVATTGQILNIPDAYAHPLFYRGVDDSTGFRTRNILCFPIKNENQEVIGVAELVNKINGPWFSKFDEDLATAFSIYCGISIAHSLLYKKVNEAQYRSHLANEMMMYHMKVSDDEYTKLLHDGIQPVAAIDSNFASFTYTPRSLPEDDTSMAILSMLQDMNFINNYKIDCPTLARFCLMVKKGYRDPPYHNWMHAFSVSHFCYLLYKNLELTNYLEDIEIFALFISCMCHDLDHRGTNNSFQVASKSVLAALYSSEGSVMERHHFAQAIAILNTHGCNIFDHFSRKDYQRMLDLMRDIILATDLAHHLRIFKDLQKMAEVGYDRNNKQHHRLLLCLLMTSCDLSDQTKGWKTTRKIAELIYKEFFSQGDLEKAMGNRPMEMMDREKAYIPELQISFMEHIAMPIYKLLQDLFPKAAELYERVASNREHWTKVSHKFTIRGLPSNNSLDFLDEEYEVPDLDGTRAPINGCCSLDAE

| Compound | IC50 |
| --- | --- |
| COc1cc(C)ccc1C(=O)N1CCOC(c2cc(C)nc3ncnn23)C1 (stereo not drawn) [Example 537, 4-(2-Methoxy-4-methylbenzoyl)-2-{5-methyl-[1,2,4]triazolo[1,5-a]pyrimidin-7-yl}morpholine] | 1000 to 10000 nM |
| Cc1cc(C2CCCN(C(=O)c3ccc(C#N)cc3)C2)n2ncnc2n1 (stereo not drawn) [Example 490, 4-[(3-{5-Methyl-[1,2,4]triazolo[1,5-a]pyrimidin-7-yl}piperidin-1-yl)carbonyl]benzonitrile] | 1000 to 10000 nM |
| Cc1cc(C2CCCN(C(=O)c3cc(C(C)C)nn3C)C2)n2ncnc2n1 (stereo not drawn) [Example 437, 1-{[1-Methyl-3-(propan-2-yl)-1H-pyrazol-5-yl]carbonyl}-3-{5-methyl-[1,2,4]triazolo[1,5-a]pyrimidin-7-yl}piperidine] | 100 to 1000 nM |
| Cc1cc(C2CCCN(C(=O)c3cc(F)ccc3F)C2)n2ncnc2n1 (stereo not drawn) [Example 433, 1-[(2,5-Difluorophenyl)carbonyl]-3-{5-methyl-[1,2,4]triazolo[1,5-a]pyrimidin-7-yl}piperidine] | 1000 to 10000 nM |
| Cc1ccc(C(=O)N2CCCC(c3cc(C)nc4ncnn34)C2)cn1 (stereo not drawn) [Example 478, 2-Methyl-5-[(3-{5-methyl-[1,2,4]triazolo[1,5-a]pyrimidin-7-yl}piperidin-1-yl)carbonyl]pyridine] | 1000 to 10000 nM |
| Cc1cc([C@H]2CN(C(=O)c3ccc4ccccc4c3)CCO2)n2ncnc2n1 [Example 241, (2R)-2-{5-methyl-[1,2,4]triazolo[1,5-a]pyrimidin-7-yl}-4-[(naphthalen-2-yl)carbonyl]morpholine] | 100 to 1000 nM |
| Cc1cc(C2CN(C(=O)c3ccc(C(F)(F)F)cc3)CCO2)n2ncnc2n1 (stereo not drawn) [Example 229, 2-{5-Methyl-[1,2,4]triazolo[1,5-a]pyrimidin-7-yl}-4-{[4-(trifluoromethyl)phenyl]carbonyl}morpholine] | 1000 to 10000 nM |
| Cc1cc(C2CCCN(C(=O)c3ccccc3)C2)n2ncnc2n1 (stereo not drawn) [Example 479, 1-Benzoyl-3-{5-methyl-[1,2,4]triazolo[1,5-a]pyrimidin-7-yl}piperidine] | 100 to 1000 nM |
| Cc1cc(C2CCCN(Cc3coc4ccccc34)C2)n2ncnc2n1 (stereo not drawn) [Example 112, 1-(1-Benzofuran-3-ylmethyl)-3-{5-methyl-[1,2,4]triazolo[1,5-a]pyrimidin-7-yl}piperidine] | 1000 to 10000 nM |
| Cc1cc(C2CCCN(C(=O)c3csc4ccccc34)C2)n2ncnc2n1 (stereo not drawn) [Example 470, 1-[(1-Benzothiophen-3-yl)carbonyl]-3-{5-methyl-[1,2,4]triazolo[1,5-a]pyrimidin-7-yl}piperidine] | 100 to 1000 nM |
| COc1ccc(CN2CCCC(c3cc(C)nc4ncnn34)C2)c(OC)c1 (stereo not drawn) [Example 64, 1-[(2,4-Dimethoxyphenyl)methyl]-3-{5-methyl-[1,2,4]triazolo[1,5-a]pyrimidin-7-yl}piperidine] | > 10000 nM |
| Cc1cc(C2CCCN(C(=O)c3nn(C)c4ccccc34)C2)n2ncnc2n1 (stereo not drawn) [Example 462, 1-Methyl-3-[(3-{5-methyl-[1,2,4]triazolo[1,5-a]pyrimidin-7-yl}piperidin-1-yl)carbonyl]-1H-indazole] | 100 to 1000 nM |
| Cc1cc(C2CCCN(Cc3cc(Br)no3)C2)n2ncnc2n1 (stereo not drawn) [Example 203, 1-[(3-Bromo-1,2-oxazol-5-yl)methyl]-3-{5-methyl-[1,2,4]triazolo[1,5-a]pyrimidin-7-yl}piperidine] | 1000 to 10000 nM |
| Cc1cc(C2CCCN(Cc3ccccc3Cl)C2)n2ncnc2n1 (stereo not drawn) [Example 75, 1-[(2-Chlorophenyl)methyl]-3-{5-methyl-[1,2,4]triazolo[1,5-a]pyrimidin-7-yl}piperidine] | > 10000 nM |

same assay, conditions: IMAP TR-FRET, 200 nM FAM-cAMP substrate, 11-point half-log dose-response

| Compound | PDE2 (pIC50) |
| --- | --- |
| Cc1cc(C2CCCN(C(=O)c3cc(-c4ccccc4)nn3C)C2)n2ncnc2n1 (stereo not drawn) [Example 445, 1-[(1-Methyl-3-phenyl-1H-pyrazol-5-yl)carbonyl]-3-{5-methyl-[1,2,4]triazolo[1,5-a]pyrimidin-7-yl}piperidine] | >7 |
| Cc1cc(Br)cc(C(=O)N2CCO[C@H](c3cc(C)nc4ncnn34)C2)c1 [Example 286, (2S)-4-(3-Bromo-5-methylbenzoyl)-2-{5-methyl-[1,2,4]triazolo[1,5-a]pyrimidin-7-yl}morpholine] | >7 |
| Cc1cc(C2CCCN(Cc3cnc(-c4ccc(F)cc4)s3)C2)n2ncnc2n1 (stereo not drawn) [Example 195, 1-{[2-(4-Fluorophenyl)-1,3-thiazol-5-yl]methyl}-3-{5-methyl-[1,2,4]triazolo[1,5-a]pyrimidin-7-yl}piperidine] | >7 |
| Cc1cc([C@@H]2CN(C(=O)c3ccc4ccccc4c3)CCO2)n2ncnc2n1 [Example 242, (2S)-2-{5-Methyl-[1,2,4]triazolo[1,5-a]pyrimidin-7-yl}-4-[(naphthalen-2-yl)carbonyl]morpholine] | >7 |
| COc1ccc2cc(C(=O)N3CC(c4cc(C)nc5ncnn45)CC(F)(F)C3)ccc2c1 (stereo not drawn) [Example 526, 3,3-Difluoro-1-(6-methoxynaphthalene-2-carbonyl)-5-{5-methyl-[1,2,4]triazolo[1,5-a]pyrimidin-7-yl}piperidine] | >7 |
| Cc1cc(C2CN(C(=O)c3ccc(C)c(Br)c3)CCO2)n2ncnc2n1 (stereo not drawn) [Example 263, 4-[(3-Bromo-4-methylphenyl)carbonyl]-2-{5-methyl-[1,2,4]triazolo[1,5-a]pyrimidin-7-yl}morpholine] | >7 |
| Cc1cc([C@@H]2CN(C(=O)c3ccc(C4CC4)cc3)CCO2)n2ncnc2n1 [Example 301, (2S)-4-(4-Cyclopropylbenzoyl)-2-{5-methyl-[1,2,4]triazolo[1,5-a]pyrimidin-7-yl}morpholine] | >7 |
| Cc1cc(C2CN(C(=O)c3ccc4cc(F)ccc4c3)CCO2)n2ncnc2n1 (stereo not drawn) [Example 559, 4-(6-Fluoronaphthalene-2-carbonyl)-2-{5-methyl-[1,2,4]triazolo[1,5-a]pyrimidin-7-yl}morpholine] | >7 |
| Cc1cc(C2CCCN(C(=O)c3cc4ccccc4o3)C2)n2ncnc2n1 (stereo not drawn) [Example 463, 1-[(1-Benzofuran-2-yl)carbonyl]-3-{5-methyl-[1,2,4]triazolo[1,5-a]pyrimidin-7-yl}piperidine] | >7 |
| Cc1cc([C@@H]2CN(C(=O)c3cc(Br)c(C)c(Br)c3)CC(F)(F)C2)n2ncnc2n1 [Example 310, (5S)-1-(3,5-Dibromo-4-methylbenzoyl)-3,3-difluoro-5-{5-methyl-[1,2,4]triazolo[1,5-a]pyrimidin-7-yl}piperidine] | >7 |
| Cc1cc(C2CCCN(C(=O)[C@@H]3COc4ccccc4O3)C2)n2ncnc2n1 (stereo partly drawn) [Example 377, 1-[(2S)-2,3-Dihydro-1,4-benzodioxine-2-carbonyl]-3-{5-methyl-[1,2,4]triazolo[1,5-a]pyrimidin-7-yl}piperidine] | >7 |
| COc1c(C(=O)N2CC(c3cc(C)nc4ncnn34)CC(F)(F)C2)ccc2ccccc12 (stereo not drawn) [Example 525, 3,3-Difluoro-1-(1-methoxynaphthalene-2-carbonyl)-5-{5-methyl-[1,2,4]triazolo[1,5-a]pyrimidin-7-yl}piperidine] | >7 |
| COc1c(C(=O)N2CCCC(c3cc(C)nc4ncnn34)C2)ccc2ccccc12 (stereo not drawn) [Example 446, 1-[(1-Methoxynaphthalen-2-yl)carbonyl]-3-{5-methyl-[1,2,4]triazolo[1,5-a]pyrimidin-7-yl}piperidine] | >7 |
